Key:
LoVo = experiment: Cytotoxicity against FPPS-positive human Lovo cells assessed as reduction in cell viability measured after 48 hrs by MTT assay; type: functional, cell-based
HCT-116 = experiment: Cytotoxicity against FPPS-positive human HCT116 cells assessed as reduction in cell viability measured after 48 hrs by MTT assay; type: functional, cell-based

## COc1ccccc1CN(CCS(=O)(=O)N1CCNCC1)S(=O)(=O)c1ccc(C)cc1
LoVo
  Activity: Dose-dependent effect
HCT-116
  Activity: Dose-dependent effect

From ChEMBL document CHEMBL4715844, “Structure-based virtual screening and biological evaluation of novel non-bisphosphonate farnesyl pyrophosphate synthase inhibitors” (Eur J Med Chem, 2020)
